Results reported in US20110171165A1 (priority 2008, published 2011).

CSCC[C@H](NC(=O)[C@H](Cc1ccccc1)NC(=O)CNC(=O)CNC(=O)[C@@H](N)Cc1ccc(O)cc1)C(=O)O [OGF, Tyr-Gly-Gly-Phe-Met]
stability following pre-incubation (forced release conditions (16 hours at 37° C., pH 10.0)): remained stable
stability following pre-incubation (physiological-like conditions (160 hours at 37° C., pH 7.5)): remained stable

Where two headings read alike, the source gives them in different places.
